Experimental data from patent publication US11974982B2, “Stimulus-responsive antioxidant crystals and method for their preparation” (The Board of Trustees of the University of Illinois, priority 2020, dated 2024).

Experiment: Release (dissolution) profile of catechin crystals through a dialysis membrane in PBS with or without H2O2
Assay type: physicochemical
Details: for dissolution rate in media containing H2O2, in words: PBS containing 0.2 mM H2O2, FIG. 5b
Protocol: Dissolution profiles of recrystallized catechin in phosphate-buffered saline are analyzed by measuring the amount of catechin dissolved and diffused from a dialysis membrane (FIG. 5a). Catechin crystals (25 mg) are placed in a dialysis tube (MWCO=500-1000 g/mol, Spectrum Labs) with PBS (1 mL). The dialysis tube is placed in the PBS media (499 mL) with different H2O2 concentrations (i.e., 0, 0.0001, 0.1, 0.2, 0.3, and 0.5 mM) and incubated at 37° C. under continuous shaking at 100 rpm. At designated times, dissolved catechin is collected and determined by reading the absorbance at 260 nm using a microplate spectrophotometer (Infinite 200 PRO, Tecan).

In the case of catechin [pure catechin crystals], the “dissolution rate in media containing H2O2, in words” value was “decrease”, the “dissolution rate in media containing H2O2, in words” value (listed as PEI-free catechin crystal) was “faster dissolution rate than catechin complexed with PEI or PEI-diselenide” and the “dissolution / release profile in PBS, in words” value (PBS free of H2O2, 37° C., FIG. 5a) was “dissolve rapidly”.
